Legend:
[1] = system: carotid arteries in guinea pigs; test: Carotid artery injury (FeCl3) arterial thrombosis model; format: in vivo; settings: 0.18 mg/kg; from 13 min; not significant
Method: FIG. 26 is a bar graph illustrating a combination of bivalirudin plus P4pal-i1 blocking occlusion of carotid arteries in guinea pigs. Guinea pigs were treated with bivalirudin, P4pal-i1 and/or P1pal-7 (n=3-5 for each treatment group) 5 min prior to injury of the carotid artery with FeCl3 as described in Example 14. P values relative to vehicle-treated are indicated at the bottom.
Arterial thrombosis in guinea pigs is prevented using a combination of bivalirudin and a PAR4 pepducin. A standard carotid artery injury model to assess the efficacy of simultaneous administration of bivalirudin and the PAR4 pepducin on arterial thrombosis in guinea pigs was used. Unlike mice which lack PAR1 on their platelets, guinea pigs share functional similarity with human platelets and express both PAR1 and PAR4. Consistent with earlier results using hirudin, bivalirudin alone (0.18 mg/kg) prolonged the mean arterial occlusion time from 13 min to 20 min, though this was not significant (FIG. 26).

human platelets = test: Human platelet aggregation to thrombin; format: cell-based
thrombin = thrombin (Homo sapiens, UniProt P00734); settings: cited from earlier work

CC[C@H](C)[C@H](NC(=O)[C@H](CCC(=O)O)NC(=O)[C@H](CCC(=O)O)NC(=O)[C@H](Cc1ccccc1)NC(=O)[C@H](CC(=O)O)NC(=O)CNC(=O)[C@H](CC(N)=O)NC(=O)CNC(=O)CNC(=O)CNC(=O)CNC(=O)[C@@H]1CCCN1C(=O)[C@H](CCCNC(=N)N)NC(=O)[C@@H]1CCCN1C(=O)[C@H](N)Cc1ccccc1)C(=O)N1CCC[C@H]1C(=O)N[C@@H](CCC(=O)O)C(=O)N[C@@H](CCC(=O)O)C(=O)N[C@@H](Cc1ccc(O)cc1)C(=O)N[C@@H](CC(C)C)C(=O)O [bivalirudin]
mean arterial occlusion time [1]: 20 min | thrombin activation of PAR1 and PAR4-dependent platelet aggregation (human platelets): efficacious in blocking thrombin activation | affinity for thrombin (thrombin): nanomolar affinity

Source: US8440627B2, “G protein coupled receptor agonists and antagonists and methods of use” (Tufts Medical Center, Inc., priority 2004, dated 2013)
